Measurements taken from patent publication US11142525B2 (Pfizer Inc., priority 2018, dated 2021).

The chains behind the UniProt entries cited, without tags or fusion partners.
UniProt Q92918, whole entry: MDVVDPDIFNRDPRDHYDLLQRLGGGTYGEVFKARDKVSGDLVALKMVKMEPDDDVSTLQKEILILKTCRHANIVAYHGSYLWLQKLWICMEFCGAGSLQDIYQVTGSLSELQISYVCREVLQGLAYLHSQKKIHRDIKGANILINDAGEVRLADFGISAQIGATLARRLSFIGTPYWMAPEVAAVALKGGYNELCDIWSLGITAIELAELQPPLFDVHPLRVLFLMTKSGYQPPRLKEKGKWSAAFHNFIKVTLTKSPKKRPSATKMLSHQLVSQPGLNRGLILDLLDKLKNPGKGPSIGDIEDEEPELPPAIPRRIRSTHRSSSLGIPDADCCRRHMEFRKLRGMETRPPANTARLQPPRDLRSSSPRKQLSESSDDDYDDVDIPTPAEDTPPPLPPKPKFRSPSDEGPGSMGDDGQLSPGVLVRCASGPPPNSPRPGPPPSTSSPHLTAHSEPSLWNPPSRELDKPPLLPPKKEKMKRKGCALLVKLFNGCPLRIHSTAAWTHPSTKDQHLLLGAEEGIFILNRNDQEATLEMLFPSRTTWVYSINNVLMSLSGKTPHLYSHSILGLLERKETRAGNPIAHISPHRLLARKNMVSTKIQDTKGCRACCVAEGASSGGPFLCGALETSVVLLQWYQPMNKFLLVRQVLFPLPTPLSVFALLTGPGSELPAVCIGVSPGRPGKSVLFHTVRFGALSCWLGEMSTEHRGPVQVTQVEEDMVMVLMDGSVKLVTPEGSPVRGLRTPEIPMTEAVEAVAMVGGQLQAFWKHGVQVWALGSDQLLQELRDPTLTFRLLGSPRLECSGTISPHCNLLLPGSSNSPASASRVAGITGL

Experiments:
[1] = target: human full-length recombinant HPK1 (Homo sapiens (Human), UniProt Q92918); test: HPK1 biochemical enzyme assay, microfluidic mobility shift assay (MSA); details: read-out: HPK1 Enzyme Assay_Ki
[2] = tested on: phospho-SLP-76 (Ser376) in Jurkat cells; test: Phospho-SLP-76 (Ser376) Homogeneous Time Resolved Fluorescence (HTRF) assay in Jurkat cells; details: read-out: SLP76 Assay_IC50, Phospho-SLP-76 (Ser376) HTRF, anti-CD3 stimulation

CNCc1nc(N2CCC[C@H]2C)cc2c1CN(c1cccc(-c3nnc(C)n3CC(C)C)n1)C2=O
Ki [1]: 0.22 nM | IC50 [2]: 640 nM
